Measured values reported in patent US20130203167A1.

What was measured:
[1] = biological target: full-length WDR5 (UniProt P61964); experiment: sedimentation velocity, 1:1 stoichiometric ratio
[2] = biological target: full-length WDR5 (UniProt P61964); experiment: sedimentation velocity analytical ultracentrifugation, in solution; sedimentation velocity AUC, MLL1 construct, not the peptide
[3] = biological target: WDR5-RbBP5-Ash2L subcomplex (UniProt P61964); experiment: sedimentation velocity of the assembled MLL1 core complex (MLL1 with the WDR5-RbBP5-Ash2L subcomplex), without competitor peptide; reference for the shift to 4.6 s* with the Win peptide

MLL^3745, polypeptide construct consisting of residues 3745-3969 of human MLL1 (SEQ ID NO. 26) (from UniProt Q03164 3745-3969) (enzyme; other documents disagree on this pair)
s* value of the complex formed [1]: 2.87 s
Kd [2]: 0.12 µM
s* of the sedimentation peak of the MLL1 core complex (holocomplex, no peptide) [3]: 5 s
